# Yeast mating assay 2: variants of the scFv Ab-95

Target peptide (SARS-CoV-2 spike, HR2 region): PDVDLGDISGINAS

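The parent was found by panning a naive human phage display library on the peptide. The library (AAYL52) carries one to three amino acid substitutions per variant, with no insertions or deletions. In AlphaSeq, yeast of one mating type display the scFv and yeast of the other type display the target. Binding brings cells together so that they mate, and sequencing counts the barcode pairs among the diploids. Each replicate has its own calibration line, from reference interactions of the BCL2 family. There are three technical replicates.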

The variants keep the heavy chain, the linker and the frameworks of Ab-95 (scFv order VH, a 15-residue (Gly4Ser)3 linker, VL).
VH: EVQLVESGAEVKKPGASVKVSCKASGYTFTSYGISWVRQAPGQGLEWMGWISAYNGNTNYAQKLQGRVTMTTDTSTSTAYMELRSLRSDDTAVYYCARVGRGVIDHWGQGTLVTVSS
VL: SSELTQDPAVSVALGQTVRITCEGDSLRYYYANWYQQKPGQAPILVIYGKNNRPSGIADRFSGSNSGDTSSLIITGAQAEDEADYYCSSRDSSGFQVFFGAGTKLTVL

Substitutions are numbered in sequence along the VL above, starting at 1 (not Kabat).
Affinities are written as log10 Kd with Kd in nM; a lower number is a better binder.
The mean shown is taken over the replicates in which the pair was detected.
An entry "n.d." has no value in the source: the pair was not observed among the diploids in that replicate. This suggests poor binding but is not conclusive.
Nonspecific signal, from three strains lacking the peptide, appeared in 28% of pairings of library AAYL52, centred on 3.91 (5% of these signals below 2.90); values are not corrected for it.
Parent in this assay: reference entry 2.31, copy in this library 2.25.

| replicates, log10 nM | mean log10 Kd (nM) | changes |
|---|---|---|
| 3.64 n.d. n.d. | 3.64 | R90E/S92Q/F95I |
| 3.59 n.d. n.d. | 3.59 | R28I/N51L/S92R |
| 3.21 n.d. n.d. | 3.21 | E23L/D25Q/R53N |
| n.d. n.d. 3.49 | 3.49 | S26Q/R53H/F98C |
| 3.52 2.29 2.67 | 2.83 | K50M/R90G/S93V |
| n.d. n.d. n.d. | n.d. | L27A/G49K/N51L |
| 5.60 3.95 3.74 | 4.43 | L27H/S89E/F98A |
| n.d. n.d. n.d. | n.d. | L27C/R28I/G94R |
| 4.37 n.d. n.d. | 4.37 | S26V/N51I/V97M |
| 5.81 n.d. 3.47 | 4.64 | Y30N/G49I/K50W |
| 4.14 3.24 n.d. | 3.69 | S26V/Y29F/F98E |
| n.d. n.d. 3.07 | 3.07 | R28N/G49C/P54D |
| 3.70 3.03 1.96 | 2.90 | R28P/K50Q/S88N |
| n.d. 4.13 3.67 | 3.90 | P54I/S55H/Q96D |
| 1.16 1.67 0.96 | 1.26 | Y30A/S93K/G94K |
| 5.26 n.d. n.d. | 5.26 | S26W/Y29W/V97F |
| n.d. n.d. n.d. | n.d. | N33T/R53W |
| 5.41 5.44 n.d. | 5.43 | N51L/S89M |
| 3.40 2.91 3.86 | 3.39 | R28L/G94L |
| n.d. n.d. n.d. | n.d. | R53G/D91M |
| n.d. n.d. n.d. | n.d. | R53G/P54V/F98N |
| 3.04 2.58 2.58 | 2.73 | Y31H/R53S/F95P |
| n.d. n.d. 3.86 | 3.86 | L27W/K50Y/S88P |
| 1.54 1.61 0.99 | 1.38 | Y30E/S89G/S93E |
| 4.62 n.d. 3.74 | 4.18 | R28I/G49S/S89V |
| 3.89 3.63 n.d. | 3.76 | S26Y/G94I |
| 3.14 2.69 4.33 | 3.39 | D25E/R90N/G94R |
| 4.11 5.25 2.60 | 3.99 | E23M/N51K/F95D |
| n.d. n.d. n.d. | n.d. | G24E/N33W/N52K |
| 5.83 3.45 n.d. | 4.64 | E23K/G49W/F95L |
| 3.18 3.01 3.30 | 3.16 | R28L/G94S/V97H |
| 5.36 n.d. n.d. | 5.36 | S26D/N51D/Q96W |
| n.d. n.d. n.d. | n.d. | G94N/Q96G/F98T |
| n.d. n.d. n.d. | n.d. | S26T/P54G/D91L |
| 4.61 n.d. n.d. | 4.61 | K50T/R53Y/S92N |

The closing 6 entries, repeated:

{"changes": "E23K/G49W/F95L", "replicates, log10 nM": "5.83 3.45 n.d.", "mean log10 Kd (nM)": "4.64"}
{"changes": "R28L/G94S/V97H", "replicates, log10 nM": "3.18 3.01 3.30", "mean log10 Kd (nM)": "3.16"}
{"changes": "S26D/N51D/Q96W", "replicates, log10 nM": "5.36 n.d. n.d.", "mean log10 Kd (nM)": "5.36"}
{"changes": "G94N/Q96G/F98T", "replicates, log10 nM": "n.d. n.d. n.d.", "mean log10 Kd (nM)": "n.d."}
{"changes": "S26T/P54G/D91L", "replicates, log10 nM": "n.d. n.d. n.d.", "mean log10 Kd (nM)": "n.d."}
{"changes": "K50T/R53Y/S92N", "replicates, log10 nM": "4.61 n.d. n.d.", "mean log10 Kd (nM)": "4.61"}

Source: Engelhart et al. 2022 (doi:10.1038/s41597-022-01779-4), MIT Lincoln Laboratory and A-Alpha Bio; data file from the FLAb repository.